This note sets out measurements from patent US20250186448A1, “FORMULATIONS OF UDENAFIL” (Mezzion Pharma Co., Ltd., priority 2021, published 2025).

Type in all cases: in vivo, human
Experiment [1] has as its system adolescents with Fontan physiology. In words: FUEL trial: resting data and cardiopulmonary exercise test (CPET), cycle ergometer ramp protocol. The settings on record: 87.5 mg twice daily. The text has this:
Exercise testing can include assessment of VO2 values during maximal effort or at the ventilator anaerobic threshold (VAT). VO2 max, or maximal oxygen consumption, refers to the maximum amount of oxygen that an individual can utilize during intense exercise. This measurement is generally considered a reliable indicator of cardiovascular fitness and aerobic endurance. The more oxygen a person can use during high level exercise, the more energy that person can produce. This test has been the standard for cardiorespiratory fitness because muscles need oxygen for prolonged (aerobic) exercise; blood carries oxygen to the muscles and the heart must pump adequate amounts of blood to meet the demands of aerobic exercise.
VO2 is often measured by putting a mask on a subject, and measuring the volume and gas concentrations of inhaled and expired air. This measurement is often used in both clinical settings and research and is considered the most accurate. Testing commonly involves either exercising on a treadmill or riding a cycle ergometer at increasing intensity until exhaustion, and is designed to provide readings at a maximal effort of the subject and/or at the subject's anaerobic threshold.
Exercise testing can include assessment of VO2 values during maximal effort or at ventilator anaerobic threshold (“VAT”). VO2 max (“peak VO2”), or maximal (“peak”) oxygen consumption, refers to the maximum amount of oxygen that an individual can utilize during intense exercise. This measurement is generally considered a reliable indicator of cardiovascular fitness and aerobic endurance. Theoretically, the more oxygen a person can use during exercise, the more energy that person can produce. This test is often used for cardiorespiratory fitness because muscles need oxygen for prolonged (aerobic) exercise; blood carries oxygen to the muscles and the heart must pump adequate amounts of blood to meet the demands of aerobic exercise. However, while peak VO2 may be useful as a surrogate for many cardiovascular disease states, it may not be as relevant an endpoint after the Fontan operation. In this unique physiology, central venous pressure, rather than right ventricular contraction (pumping), is the primary driver of transpulmonary blood flow and, therefore, cardiac output. Gewillig M and Goldberg D J. Failure of the fontan circulation. Heart Fail Clin. 10(1):105-116 (January 2014); Egbe A C, Connolly H M, Miranda W R, Ammash N M, Hagler D J, Veldtman G R and Borlaug B A. Hemodynamics of Fontan Failure: The Role of Pulmonary Vascular Disease. Circ Heart Fail. 10(12): e004515 (September 2017); Gewillig M, Brown S C, Eyskens B, Heying R, Ganame J, Budts W, La Gerche A and Gorenflo M. The Fontan circulation: who controls cardiac output?Interact Cardiovasc Thorac Surg. 10(3):428-433 (March 2010); and Goldberg D J, Avitabile C M, McBride M G and Paridon S M. Exercise capacity in the Fontan circulation. Cardiol Young. 23(6):824-830 (December 2013). […]
VO2 is often measured by putting a mask on a subject, and measuring the volume and gas concentrations of inhaled and expired air. […] Testing commonly involves either exercising on a treadmill or riding a cycle ergometer at increasing intensity until exhaustion, and is designed to provide readings at a maximal effort of the subject and/or at the subject's anaerobic threshold. […]

Experiment [2] has the same test system. In words: FUEL trial: echocardiographic myocardial performance index (MPI), blood pool Doppler. As to conditions: ITT. An excerpt:
Generally speaking, MPI (also referred to as the Doppler-derived index or Tei Index) is a measure of ventricular systolic and diastolic function as determined by a focused echocardiogram. It combines systolic and diastolic time intervals to assess heart function. More specifically, MPI can be used to assess ventricular performance represented by a numeric value using cardiac time intervals. This numeric value equals the sum of isovolumetric contraction time (ICT) and isovolumetric relaxation time (IRT) divided by ejection time (ET) and can be determined for either the left or right ventricle. Pellett, A. A., et al.: The Tei Index: Methodology and Disease. State Values. Echocardiography: A Jrnl. of CV Ultrasound & Allied Tech. 21(7):669-672 (2004); and Uluçay, A., Tatli E.: Myocardial performance index. Anadolu Kardiyol Derg. […] In the FUEL Trial, the MPI measured the performance of the single functioning ventricle. Thus, the MPI results from the FUEL Trial were determined by velocities obtained from blood pool Doppler assessment of the inflow and outflow tract of the functioning single ventricle. In other words, the FUEL Trial MPI was determined by measuring the cardiac time intervals using pulsed-wave Doppler velocity spectra of the ventricular inflow and outflow of the single functioning ventricle. […]

Experiment [3] shares this test system. In words: FUEL trial: peripheral arterial tonometry (EndoPAT), log-transformed reactive hyperemia index (lnRHI). As to conditions: for Log-transformed reactive hyperemia index (lnRHI), difference Week 26-baseline, mean (SD): 87.5 mg twice daily. The text has this:
Pulse amplitude tonometry (PAT), a FDA-approved method for assessing vascular function, is increasingly being used as an alternative measure of endothelium-dependent dilation in response to reactive hyperemia and flow-mediated dilation (FMD). The PAT device records digital pulse wave amplitude (PWA) using fingertip plethysmography. PWA can be measured continuously during three phases: a quiet baseline period, 5-min forearm occlusion, and reactive hyperemia following cuff release. Unlike FMD, PAT testing is not dependent upon a highly skilled technician and post-test analysis is largely automated. Most importantly, at least one longitudinal study has shown that PAT measures of endothelial function predict CVD events over a 6-year follow-up period. These significant advantages may make PAT testing suitable for clinical practice if prognostic significance and reliability can be verified.
The primary aim was to determine the effect of udenafil on exercise capacity in adolescents with Fontan physiology over a six-month period. The primary outcome was the change in oxygen consumption at peak exercise (max or peak VO2) from baseline to the 26-week visit. Secondary exercise outcomes included change in additional measures at maximal exertion, as well as change in measures of submaximal exercise at the ventilatory anaerobic threshold (VAT). […] Safety was monitored through adverse event reports, which were collected according to a pre-specified protocol of study coordinator outreach, and through ad hoc patient and family communication with members of the study team at each site.
Baseline clinical testing completed before drug initiation included a blood draw to measure brain-type natriuretic peptide (BNP) level, a cardiopulmonary exercise test (CPET) using a standardized cycle ergometer ramp protocol, a standardized echocardiogram, and an assessment of peripheral vascular function using peripheral arterial tonometry (PAT) measured by finger cuff (EndoPAT; Itamar Medical, Israel). […]

Experiment [4] shares this test system. In words: FUEL trial: serum brain-type natriuretic peptide (BNP) level. As to conditions: p=0.18.

Structures are written as SMILES. Entries after “also recorded” stand apart in the source; their conditions may differ.

Take `CCCOc1ccc(S(=O)(=O)NCCC2CCCN2C)cc1-c1nc2c(CCC)nn(C)c2c(=O)[nH]1` (centres unmarked) [Udenafil, udenafil]: the “Anaerobic threshold oxygen consumption indexed to weight” value in experiment [1] (Baseline, mean ± SD) is on record as 18.35 ± 4.63 (170) mL/kg/min. Also, the “Peak exercise oxygen consumption indexed to weight” value in experiment [1] (Baseline, mean ± SD) was 27.84 ± 6.88 (200) mL/kg/min. In addition, the “Anaerobic threshold oxygen consumption indexed to weight, change” value in experiment [1] (Change, p 0.012 vs placebo) is listed as −0.07 ± 3.0 (170) mL/kg/min. In addition, the “Peak exercise oxygen consumption indexed to weight, change” value in experiment [1] (Change, p 0.092 vs placebo) is given as −0.23 ± 4.06 (200) mL/kg/min. In experiment [1] (baseline to 26-week), the “VE/VCO2 measured at VAT, decreased by (improved ventilatory efficiency)” value is reported as 0.8. In addition, the “Myocardial Performance Index (MPI), mean” value in experiment [2] (87.5 mg twice daily, Week 26) is 146: 0.42; in experiment [2] (Baseline), 150: 0.45. Besides, the “Log-transformed reactive hyperemia index (lnRHI), difference Week 26-baseline, mean (SD)” value in experiment [3] is 0.06 (0.301); in experiment [3] (listed as udenafil) it was 0.07. Further, the “Log-transformed reactive hyperemia index, Difference LS Mean (SE), udenafil vs placebo” value in experiment [3] (p 0.591) is recorded as 0.02 (0.030). For the same compound, in experiment [4], the “Change in log serum BNP level, udenafil vs placebo” value is listed as “not different between groups; also recorded: no difference”.
